Read-outs that look alike come from different tables or passages of the source.

For the data set, the system named is TA98. Conditions: TA98 −S9, positive control 200 μg/dish. The method, then:
4.3 Sample processing and preparation: 4000 mg sample was weighted and distilled water was added into the sample to 20 ml, then the mixture was blended to obtain a 200 mg/ml of solution. 3, 1, 0.3 and 0.1 mL of this solution were taken, respectively and each was added with sterile distilled water to 10 ml to obtain a solution in the concentration of 60 mg/ml, 20 mg/ml, 6 mg/ml and 2 mg/ml, respectively.
4.4 Test doses: 0.2 mg/dish, 0.6 mg/dish, 2 mg/dish, 6 mg/dish and 20 mg/dish
4.7 Test strains: TA97, TA98, TA100 and TA102, with qualitied biological characters, provided by Biochemistry Dept., California University, CA, America. The concentration of the bacteria liquid used for the test was 1-2×10^9/ml.
A healthy adult SD rat with a body weight of about 150 g was selected. Polychlorinatedbiphenyl was dissolved into corn oil to obtain a solution of 200 mg/ml. The above solution was injected (i.p.), in a sterile operation, into the rat in a dose of 500 mg/kg. 5 days later, the animal was sacrificed via decapitation. The liver was taken out and weighted, then rinsed several times with 0.15 mol/L of fresh cooled solution of potassium chloride. The amount of the potassium chloride solution was 3 ml/g liver (wet weight). The beaker in which the rinsed liver put was removed into an ice bath, and the liver was cut into pieces with a pair of sterilized scissors. […]

With p-nitroquinoline, the Re-established colonies runs as follows: (first test) 1108 ± 73 colonies/sish; (second test) 868 ± 60 colonies/sish.

The values above are taken from US20090301508A1, “Cosmetic Composition and Preparation Method and Use Thereof” (priority 2006, published 2009).
